Source: PMC6445159, “Resorcinol-, catechol- and saligenin-based bronchodilating β2-agonists as inhibitors of human cholinesterase activity” (Journal of Enzyme Inhibition and Medicinal Chemistry, 2017)

Amino acid sequences for entries named in this document (tags omitted). Residues count along the entry.
UniProt P06276, 29-602: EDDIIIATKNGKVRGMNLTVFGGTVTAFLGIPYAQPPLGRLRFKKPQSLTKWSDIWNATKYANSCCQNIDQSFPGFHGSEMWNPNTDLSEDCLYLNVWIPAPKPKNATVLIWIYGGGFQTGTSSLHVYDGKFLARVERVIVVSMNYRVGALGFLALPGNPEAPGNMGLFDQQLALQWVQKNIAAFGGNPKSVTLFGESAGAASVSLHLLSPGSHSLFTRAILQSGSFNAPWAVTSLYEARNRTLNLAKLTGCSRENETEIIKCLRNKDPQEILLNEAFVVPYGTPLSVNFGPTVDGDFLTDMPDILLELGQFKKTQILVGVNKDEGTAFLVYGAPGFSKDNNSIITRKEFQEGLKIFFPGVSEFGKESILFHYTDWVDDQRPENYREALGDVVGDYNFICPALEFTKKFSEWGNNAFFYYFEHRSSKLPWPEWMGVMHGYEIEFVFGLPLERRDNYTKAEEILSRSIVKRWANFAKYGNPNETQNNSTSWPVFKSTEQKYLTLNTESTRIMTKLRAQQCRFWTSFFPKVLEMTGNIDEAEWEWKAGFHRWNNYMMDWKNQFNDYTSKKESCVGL
UniProt P06276, 29-602 D98G: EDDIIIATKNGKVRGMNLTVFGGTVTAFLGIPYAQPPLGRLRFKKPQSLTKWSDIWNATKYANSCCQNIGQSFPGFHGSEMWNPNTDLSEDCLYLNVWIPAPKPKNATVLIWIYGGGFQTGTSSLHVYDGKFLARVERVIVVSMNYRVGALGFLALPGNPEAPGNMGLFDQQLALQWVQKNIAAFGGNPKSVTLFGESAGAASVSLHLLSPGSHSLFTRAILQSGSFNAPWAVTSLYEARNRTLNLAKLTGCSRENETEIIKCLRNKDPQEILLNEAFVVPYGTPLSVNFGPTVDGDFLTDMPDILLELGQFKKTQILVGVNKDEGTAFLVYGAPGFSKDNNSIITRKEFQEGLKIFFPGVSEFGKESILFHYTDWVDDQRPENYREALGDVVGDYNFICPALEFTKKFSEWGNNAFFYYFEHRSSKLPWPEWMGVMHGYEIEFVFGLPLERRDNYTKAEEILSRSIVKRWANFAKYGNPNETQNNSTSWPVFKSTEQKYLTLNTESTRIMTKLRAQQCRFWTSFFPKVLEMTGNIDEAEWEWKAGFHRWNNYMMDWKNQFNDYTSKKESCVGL
UniProt P22303, 32-614: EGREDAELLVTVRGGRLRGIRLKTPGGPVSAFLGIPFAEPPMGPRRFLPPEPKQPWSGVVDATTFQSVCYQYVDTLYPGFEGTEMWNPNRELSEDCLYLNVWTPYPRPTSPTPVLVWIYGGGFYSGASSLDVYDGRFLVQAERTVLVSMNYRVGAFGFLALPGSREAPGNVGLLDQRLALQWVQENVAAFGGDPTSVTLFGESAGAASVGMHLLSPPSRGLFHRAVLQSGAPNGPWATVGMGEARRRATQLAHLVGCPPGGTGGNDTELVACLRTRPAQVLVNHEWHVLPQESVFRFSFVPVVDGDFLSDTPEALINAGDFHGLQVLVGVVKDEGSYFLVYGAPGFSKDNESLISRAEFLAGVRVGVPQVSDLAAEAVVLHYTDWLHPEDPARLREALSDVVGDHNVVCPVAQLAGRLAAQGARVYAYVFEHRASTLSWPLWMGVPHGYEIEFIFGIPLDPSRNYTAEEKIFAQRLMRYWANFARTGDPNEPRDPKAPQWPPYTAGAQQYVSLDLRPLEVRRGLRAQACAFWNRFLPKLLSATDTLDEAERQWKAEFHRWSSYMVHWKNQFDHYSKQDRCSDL

Legend:
usual BChE = molecular target: T1, usual BChE (Homo sapiens, UniProt P06276); type: biochemical; conditions: for Ki: enantiomers, substrate PTCh, pH 7.4, 25 °C, K(I) ± SE
T1 construct: Human native serum was used as a source of BChE; from tissue; host or cells: human serum (donor, IMROH Zagreb)
Description: (§1) ATCh was used as a substrate for AChE and PTCh as a substrate for BChE. The reaction mixture contained DTNB (final concentration 0.3 mM), buffer, enzyme suspension, inhibitor (0.5–10 mM) and ATCh or PTCh (0.025–1.0 mM). Inhibition of enzymes was determined by measuring the decrease in enzyme activity in the presence of inhibitors.
(§2) The dissociation constant for an enzyme–inhibitor complex K(I) was evaluated from the impact of substrate concentrations [S] on the degree of inhibition applying the Hunter–Downs equation[17]^,[39]: Ki,app=vi/v0-vi·[I]=K(I)+K(I)/K(S)·[S] where Ki,app is an apparent enzyme-reversible inhibitor complex dissociation constant obtained at a given substrate concentration [S] in the presence of inhibitor concentration [I] and calculated from the enzyme activities v0 and vi measured without inhibitor and in the presence of inhibitor concentration [I], respectively. K(I) is the enzyme-reversible inhibitor complex dissociation constant and can stand for a complex formed at the catalytic site or for a complex formed at the peripheral site of the enzyme. K(S) is the enzyme-substrate dissociation constant that could be approximated to the Michaelis constant or to the enzyme-substrate dissociation constant when two molecules of the substrate are bound to the enzyme.

human AChE = human AChE (Homo sapiens, UniProt P22303); type: biochemical; conditions: for Ki: enantiomers, substrate ATCh, pH 7.4, 25 °C, K(I) ± SE
Description: as §1, §2

fluoride-resistant BChE = fluoride-resistant BChE (Homo sapiens, UniProt P06276); conditions: enantiomers; substrate PTCh, pH 7.4, 25 °C; K(I) ± SE
Description: as §1, §2

atypical BChE = molecular target: T2, atypical BChE (Homo sapiens, UniProt P06276, D98G); assay: Reversible inhibition of atypical BChE (Ellman method, Hunter–Downs evaluation); type: biochemical; conditions: enantiomers; substrate PTCh, pH 7.4, 25 °C; K(I) ± SE
T2 construct: Human native serum was used as a source of BChE; from tissue; host or cells: human serum
Description: as §1, §2

SMILES | Ki (usual BChE) [µM] | Ki (human AChE) [µM] | Ki (fluoride-resistant BChE) [µM] | Ki (atypical BChE) [µM] | inhibition potency higher than other compounds of the same group (usual BChE; usual BChE, versus other resorcinol-, catechol- or saligenin-based compounds) | increase in inhibition potency (human AChE; AChE, compared to metaproterenol and terbutaline)
C[C@@H](Cc1ccc(O)cc1)NC[C@@H](O)c1cc(O)cc(O)c1 [(S,S)-fenoterol] | 13 ± 1 | 350 ± 30 | 37 ± 5 | 100 | – | –
CC(Cc1ccc(O)cc1)NCC(O)c1cc(O)cc(O)c1 (stereo not shown) [Fenoterol] | – | – | – | – | up to 23 times | fivefold
C[C@H](Cc1ccc(O)cc1)NC[C@H](O)c1cc(O)cc(O)c1 [(R,R)-fenoterol] | 9.4 ± 0.8 | 540 ± 30 | 19 ± 4 | 130 ± 20 | – | –
